# Assay results reported in PubChem BioAssay AID720648 (The Scripps Research Institute Molecular Screening Center, 2013).
# Sequences of proteins named here, by UniProt entry; tags and fusion partners are left off. A change or cut given only in a name is not applied to a line headed by its entry.
# UniProt P78536: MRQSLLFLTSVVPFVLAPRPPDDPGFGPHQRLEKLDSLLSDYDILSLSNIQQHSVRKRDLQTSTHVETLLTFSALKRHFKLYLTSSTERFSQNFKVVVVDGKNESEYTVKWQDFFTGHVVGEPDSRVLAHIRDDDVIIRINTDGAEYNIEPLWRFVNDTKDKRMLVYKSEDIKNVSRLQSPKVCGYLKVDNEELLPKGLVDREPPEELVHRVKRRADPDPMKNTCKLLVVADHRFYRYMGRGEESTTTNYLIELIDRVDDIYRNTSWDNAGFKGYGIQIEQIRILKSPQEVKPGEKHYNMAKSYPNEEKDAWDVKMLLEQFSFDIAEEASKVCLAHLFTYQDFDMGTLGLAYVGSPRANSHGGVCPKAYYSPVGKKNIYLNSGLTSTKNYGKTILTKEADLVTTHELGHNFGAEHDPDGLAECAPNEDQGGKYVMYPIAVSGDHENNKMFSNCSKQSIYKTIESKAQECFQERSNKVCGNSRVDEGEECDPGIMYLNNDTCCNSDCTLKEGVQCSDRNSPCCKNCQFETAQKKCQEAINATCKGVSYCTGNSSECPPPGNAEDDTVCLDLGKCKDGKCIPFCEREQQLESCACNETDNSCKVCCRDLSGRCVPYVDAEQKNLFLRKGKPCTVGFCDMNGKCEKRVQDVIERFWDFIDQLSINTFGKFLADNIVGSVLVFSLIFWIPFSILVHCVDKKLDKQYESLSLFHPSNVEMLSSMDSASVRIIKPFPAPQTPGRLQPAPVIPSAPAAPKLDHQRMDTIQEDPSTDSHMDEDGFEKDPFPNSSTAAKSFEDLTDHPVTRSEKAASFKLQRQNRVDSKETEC
# The entries are a selection whose mix differs from that of the whole data set. Calls of active or inactive are those of the source.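 The calls were made as follows: active = inhibition above the mean of compounds lying between control limits plus 3 SD, set per campaign (cut at about 8.5% in these data); inactive = the rest.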
# Biological target: Disintegrin and metalloproteinase domain-containing protein 17 (Homo sapiens) (UniProt P78536)
# Assay: ADAM17 inhibitors, primary screen, biochemical, QFRET (AID 720648);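 also: 0% = DMSO-only wells as the low control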
# Settings: recombinant ADAM17, EDANS/DABCYL FRET peptide cleavage; at 6.95 µM; active compounds read high
row,SMILES,inhibition
1,CCNC(=S)/N=C(\N)N[N+](=O)[O-],inactive: -0.21%
2,O=C(NC1CCS(=O)(=O)C1)NP(=S)(Oc1ccccc1)Oc1ccccc1 (centres undefined),inactive: 1.88%
3,O=P1(N(CCCl)CCCl)OCCC2CCCCN21 (centres undefined),inactive: 2.79%
4,Cc1ccccc1CN(C)C(=O)COC(=O)C(O)(c1ccccc1)c1ccccc1,inactive: -3.99%
5,C[C@@H]1C=CCP(=O)(Oc2ccccc2)O1 (some centres undefined),inactive: 1.24%
6,C[C@H]1OP(=O)(Oc2ccccc2)C[C@@H]2O[C@@H]21 (some centres undefined),inactive: -0.81%
7,N#C/C(=C\c1ccc(N(CCBr)CCBr)cc1)C(N)=O,inactive: -2.57%
8,CC(=O)c1ccc(N2CC2c2ccncc2)cc1 (centres undefined),inactive: -2.27%
9,COC(=O)C1(C)COP(=O)(NCc2ccccc2)OC1 (centres undefined),inactive: -6.45%
10,CC(=O)Nc1ccc([As](=O)(O)O)c(O)c1,inactive: -4.2%
11,CC(=O)Nc1ccc(Oc2c([N+](=O)[O-])cc([N+](=O)[O-])cc2[N+](=O)[O-])cc1,inactive: -3%
12,O=P1(Nc2nc3ccc(Cl)cc3s2)COc2ccccc2O1 (centres undefined),inactive: -1.93%
13,CCOc1ccc(C2=NCC(CBr)S2)cc1 (centres undefined),inactive: 0.55%
14,CC(C)(C)C(=O)NC(Sc1ccccc1)C(Cl)(Cl)Cl (centres undefined),inactive: -0.94%
15,CCc1cc(O)c([N+](=O)[O-])c(C)c1[N+](=O)[O-],inactive: -0.68%
16,CC(C)C(=O)NC(Sc1ccccc1)C(Cl)(Cl)Cl (centres undefined),inactive: -4.01%
17,O=P(Nc1nccs1)(c1ccccc1)c1ccccc1,inactive: -0.7%
18,c1nnnn1CCn1cnnn1,inactive: 0.27%
19,O=[As](O)(c1ccccc1)c1ccc(O)cc1,inactive: 2.99%
20,CC(=O)NC(SC(=S)N(C)C)C(Cl)(Cl)Cl (centres undefined),inactive: -2.56%
21,O=[N+]([O-])c1ncn(CCn2cnc([N+](=O)[O-])n2)n1,inactive: -6.67%
22,O=C(OC1CN2CCC1CC2)c1cccc(Cl)c1 (centres undefined),inactive: 2.38%
23,C/C(N)=N\P(=O)(OCc1ccccc1)OCc1ccccc1,inactive: 2.16%
24,Nc1ccc([As](=O)(O)c2ccc([N+](=O)[O-])cc2)cc1,inactive: -1.98%
25,C(Cc1nn[nH]n1)Cc1nn[nH]n1,inactive: 0.33%
26,O=P(Nc1ccccn1)(c1ccc(Br)cc1)c1ccc(Br)cc1,inactive: -2.5%
27,CN(C)C1(CNC(=O)c2ccc(Cl)c(S(N)(=O)=O)c2)CCCCC1,inactive: -0.66%
28,Nc1ccc(CCCCOc2ccccc2)cc1,inactive: 1.95%
29,COc1ccc(N)c([N+](=O)[O-])c1[N+](=O)[O-],inactive: 6.11%
